# In patent US11207283B2, “Inactivators of toxoplasma gondii ornithine aminotransferase for treating toxoplasmosis and malaria” (priority 2016, dated 2021):
# Assays:
# [1] = molecular target: TgOAT; conditions: time-dependent inactivators
# [2] = molecular target: T1, human OAT (Homo sapiens, UniProt P04181); conditions: cited from earlier work
# T1 sequence (P04181 36-439 limits assumed): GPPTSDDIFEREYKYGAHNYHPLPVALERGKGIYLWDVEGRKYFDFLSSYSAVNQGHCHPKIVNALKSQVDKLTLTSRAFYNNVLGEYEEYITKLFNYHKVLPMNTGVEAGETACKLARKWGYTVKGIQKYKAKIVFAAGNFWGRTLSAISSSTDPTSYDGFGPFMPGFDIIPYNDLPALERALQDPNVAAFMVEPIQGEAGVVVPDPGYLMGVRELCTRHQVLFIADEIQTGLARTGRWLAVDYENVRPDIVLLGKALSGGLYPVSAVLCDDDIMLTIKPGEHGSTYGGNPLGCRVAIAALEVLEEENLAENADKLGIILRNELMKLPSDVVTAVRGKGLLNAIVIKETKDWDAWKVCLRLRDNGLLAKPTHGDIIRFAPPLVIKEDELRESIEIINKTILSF
substance,measurement,setting,value
"gabaculine [Compound 23, reference compound]",kinact/KI,[1],183330 M⁻¹ s⁻¹
same,kinact (rate constant of enzyme inactivation),"[1]; pH 8.0, 37° C.",8.7 min⁻¹
same,activity against human OAT (in words),[2],equally potent irreversible inhibitor
